Paper PMC12836348, “Alanine Mutagenesis Identifies Specific Amino Acids of Nemertide Alpha‑1 Activity and Its Binding to Target Receptors” (Journal of Natural Products, 2025)

Test system: AaNav
Assay: Ion channel panel, AaNav
Assay type: cell-based, Aedes aegypti
Parameters: key: “+” means tested and produced effect; “–“ means tested but no effect
Details: S12A at 5 μM; Xenopus oocytes, n ≥ 3
Procedure: For the expression of NaV channels (hNav1.1, rNaV1.2, rNaV1.3, rNaV1.4, hNaV1.5, hNaV1.6, hNav1.7, and the insect channel BgNaV1) in Xenopus laevis oocytes, the linearized plasmids were transcribed using the T7 or SP6 mMESSAGE-mMACHINE transcription kit (Ambion, Carlsbad, CA, USA). The harvesting of stage V and VI oocytes from an anaesthetized female X. laevis frog was described previously. , Oocytes were injected with 50 nL of cRNA at a concentration of 1 ng/nL using a microinjector (Drummond Scientific, Broomall, PA, USA). The oocytes were incubated in a solution containing 96 mM NaCl, 2 mM KCl, 1.8 mM CaCl2, 2 mM MgCl2, and 5 mM HEPES (pH 7.4), supplemented with 50 mg/L gentamycin sulfate. […] Whole-cell currents from oocytes were recorded 1–4 days after injection. […]
To assess the concentration–response relationships, data were fitted with the Hill equation: y = 100/[1 + (EC50/[toxin])^ h ], where y is the amplitude of the toxin-induced effect (y = I 30 ms/I peak where I 30 ms is the current value at 30 ms in the presence of toxin and I peak is the peak current amplitude in control conditions), EC50 is the toxin concentration at half-maximal efficacy, [toxin] is the toxin concentration, and h is the Hill coefficient. […] ASIC1a currents were measured in ND96 solutions at a pH of 7.4 and 4.5, at a holding potential of −70 mV during 400 s, and the data were filtered at 20 Hz. […]

CC[C@H](C)[C@@H]1NC(=O)[C@@H](NC(=O)CN)CSSC[C@@H]2NC(=O)[C@@H]3CSSC[C@@H](C(=O)N[C@@H](CC(N)=O)C(=O)N4C[C@H](O)C[C@H]4C(=O)N4C[C@H](O)C[C@H]4C(=O)N[C@@H](CC(N)=O)C(=O)N[C@@H](CCC(N)=O)C(=O)O)NC(=O)[C@H](CCCCN)NC(=O)[C@H](Cc4ccccc4)NC(=O)[C@H](CC(N)=O)NC(=O)[C@H](Cc4c[nH]c5ccccc45)NC(=O)CNC(=O)[C@H](CSSC[C@H](NC(=O)[C@H](Cc4ccccc4)NC(=O)[C@H](CO)NC(=O)CNC(=O)[C@H]([C@@H](C)O)NC(=O)[C@H](C)NC1=O)C(=O)N[C@@H]([C@@H](C)O)C(=O)N[C@@H](CC(C)C)C(=O)N[C@@H](C)C(=O)N[C@@H](CCCCN)C(=O)NCC(=O)N3)NC(=O)[C@H](CC(N)=O)NC(=O)[C@H](CCCCN)NC(=O)[C@H]([C@@H](C)O)NC2=O [Peptide S12A]
effect on AaNav: +
